{
  "sequences": {"note": "The chains behind the UniProt entries cited, without tags or fusion partners.", "UniProt P21452, whole entry": "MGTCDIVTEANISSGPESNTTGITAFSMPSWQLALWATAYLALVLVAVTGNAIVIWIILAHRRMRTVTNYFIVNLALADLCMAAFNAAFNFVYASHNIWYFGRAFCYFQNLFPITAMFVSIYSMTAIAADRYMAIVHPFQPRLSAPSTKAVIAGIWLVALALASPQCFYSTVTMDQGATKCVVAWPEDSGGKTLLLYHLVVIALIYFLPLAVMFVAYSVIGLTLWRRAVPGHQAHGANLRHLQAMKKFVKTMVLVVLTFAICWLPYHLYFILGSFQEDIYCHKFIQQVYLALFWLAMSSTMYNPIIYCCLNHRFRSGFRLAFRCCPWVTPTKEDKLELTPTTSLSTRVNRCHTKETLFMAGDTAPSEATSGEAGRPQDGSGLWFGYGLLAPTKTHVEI"},
  "source": "patent US20240124524A1",
  "about": "“Agonist of Tacr2” (University of Copenhagen, priority 2019, published 2024)",
  "origin": "cited, not measured here",
  "molecular_target": "Tacr2 (Homo sapiens, UniProt P21452)",
  "conditions": "Sp Hs; cited from earlier work",
  "data": [
    {"substance": "[Phe(Me)7]neurokinin B", "values": [
      {"measurement": "Affinity", "result": 6.9, "unit": "pKi"}
    ]}
  ]
}
